# Data taken from patent US8895281B2, “Method for preparing a site-specific physiologically active polypeptide conjugate” (Hanmi Science Co., Ltd, priority 2009, dated 2014).
# Molecular target: GLP-1 receptor (CHO/GLP-1R cell line)
# Test: cell-based or functional assay
row,Substance,"In-vitro activity (%) (cAMP in CHO/GLP-1R cells, EC50 values compared)"
1,"imidazo-acetyl-exendin-4 (CA-exendin-4, Bachem, U.S.) (peptide)",77%
2,CA-exendin-4-PEG (Lys27) (peptide),8.5%
3,CA-exendin-4-PEG (Lys12) (peptide),2.1%
